System: Balb/c mice
Experimental: Twenty-four female mice of the Balb/c strain were randomly used to form 8 groups (n = 3). […] The control group was administered with only the vehicle (Tween 80 at 2% in water) and for the compounds, doses of 500 and 1000 mg kg^−1 were administered. […] Subsequently, we sacrificed the animals and extracted the organs (stomach, intestines, spleen, liver, and kidneys) were extracted, reporting the pathological changes, if any.

CN(Cc1cnc2nc(N)nc(N)c2n1)c1ccc(C(=O)N[C@@H](CCC(=O)O)C(=O)O)cc1 [MTX, methotrexate, reference compound]
TI Female (therapeutic index, LD50/ED50) (LD50 acute oral toxicity / ED50 antilymphoma activity, female mice): 255.75 | TI Male (therapeutic index, LD50/ED50) (LD50 acute oral toxicity / ED50 antilymphoma activity, male mice): 338.42 | Mortality in acute oral toxicity test (mice, single oral dose, until end of study (14 days)): caused death in the animals
